Data on one molecule can be found in US20260207641A1, “COMBINATION THERAPY FOR CANCER USING ROS-ACTIVATED PRODRUGS AND ROS-AMPLIFYING THERAPEUTICS” (UWM Research Foundation, Inc., priority 2023, published 2026).

The subject of the assay is MDA-MB-468 cells. Kind of assay: Cytotoxicity dose response (CellTiter-Glo, 48 h). The format is cell-based, human. (Cellular ATP, detected with luciferase, serves as a proxy for viable cell number.)

For `O=c1c(O)c(-c2ccc(O)c(O)c2)oc2cc(O)cc(O)c12` [Quercetin], the “SI (Selectivity Index)” value is listed as 1 and the “SI of Prodrug Combined with Maximum Safety Dose of Pro-oxidant” value amounted to 3.
